From US7691844B2, “Nonpeptide substituted spirobenzoazepines as vasopressin antagonists” (Ortho-McNeil Pharmaceutical, Inc., priority 2000, dated 2010)

The chains behind the UniProt entries cited, without tags or fusion partners.
UniProt P37288, whole entry: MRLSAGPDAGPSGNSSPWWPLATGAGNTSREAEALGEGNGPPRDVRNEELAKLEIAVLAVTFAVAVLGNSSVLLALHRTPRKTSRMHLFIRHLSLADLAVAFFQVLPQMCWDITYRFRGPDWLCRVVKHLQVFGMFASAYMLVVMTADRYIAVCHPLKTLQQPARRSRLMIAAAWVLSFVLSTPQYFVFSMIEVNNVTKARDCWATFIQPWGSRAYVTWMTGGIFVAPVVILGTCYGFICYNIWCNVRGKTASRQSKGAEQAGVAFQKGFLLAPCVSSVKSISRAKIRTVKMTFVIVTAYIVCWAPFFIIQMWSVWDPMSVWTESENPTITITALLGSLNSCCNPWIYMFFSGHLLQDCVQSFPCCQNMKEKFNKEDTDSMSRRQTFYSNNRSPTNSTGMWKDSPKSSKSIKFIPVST
UniProt P30518, whole entry: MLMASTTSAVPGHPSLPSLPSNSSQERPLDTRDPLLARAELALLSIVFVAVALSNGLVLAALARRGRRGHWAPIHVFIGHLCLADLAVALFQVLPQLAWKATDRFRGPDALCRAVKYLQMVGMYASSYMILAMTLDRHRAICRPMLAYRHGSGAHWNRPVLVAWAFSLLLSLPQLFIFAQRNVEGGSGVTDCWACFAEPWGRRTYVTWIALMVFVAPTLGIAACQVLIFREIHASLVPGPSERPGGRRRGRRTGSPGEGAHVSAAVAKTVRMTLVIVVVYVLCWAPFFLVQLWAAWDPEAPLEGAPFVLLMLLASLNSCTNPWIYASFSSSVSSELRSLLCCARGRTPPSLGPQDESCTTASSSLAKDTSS

How the values were obtained:
V1a = V1a (Homo sapiens, UniProt P37288); assay: In-vitro receptor binding assay (3H-arginine-8-vasopressin), V1a; settings: read-out: Receptor Binding V1a (IC50 in μM)
Protocol: (§1) (A) In-Vitro Binding Assay […] The reaction plates are allowed to sit at room temperature for one hour. The samples are filtered through Unifilter GF/C plates (presoaked in 0.3 polyethyleneimine). The plates are washed 5 times with cold physiological saline containing 0.05% Tween 20. After drying, the bottom of the filter plates are sealed and 0.025 ml of Microscint-20 is added to each filter. The top of the plate is sealed, and the plate is counted. Non-specific binding is determined by the addition of 1.25 μM […]-vasopressin in those wells. % Inh. is calculated as follows: […]

human V2 receptor = human V2 receptor (Homo sapiens, UniProt P30518); assay: In-vitro receptor binding assay (3H-arginine-8-vasopressin), V2; settings: read-out: Receptor Binding V2 (IC50 in μM)
Protocol: as §1

Compound: COc1cc(NC(=O)c2cc(F)ccc2C)ccc1C(=O)N1CCC2(C=C(C(=O)NCCCN3CCCC3)CC2)Cc2ccccc21 (centres unmarked)
- IC50 (V1a): 0.011 µM
- IC50 (human V2 receptor): 0.062 µM
